Literature values, collected in patent publication US4469691A, “Hexamethylenetetramine-N-acetyl-thiazolidine-4-carboxylate, a process for its preparation and a pharmaceutical composition containing it” (Ausonia Farmaceutici s.r.l., priority 1982, dated 1984).

Conditions: in vivo; cited from earlier work

SMILES: C1N2CN3CN1CN(C2)C3 [EMTA, hexamethylenetetramine]
- Absorption (in words): readily absorded
